Test results taken from ChEMBL document CHEMBL5523703, “Modulators for palmitoylation of proteins and small molecules” (Eur J Med Chem, 2024).

Species on record: Homo sapiens

- Kinact: 0.04 M⁻¹ s⁻¹
SMILES: C/C(=C\CC12OC(C)(C)C3CC(C=C4C(=O)c5c(O)cccc5OC431)C2=O)COC(=O)c1cccnc1 (stereo unspecified)
